Results reported in patent US20230172849A1, “INHALED STATINS FOR TREATMENT OF VIRAL RESPIRATORY DISEASES” (priority 2020, published 2023).

Tested on: Calu-3 cells

Structure (SMILES): O=C([O-])C[C@H](O)C[C@H](O)/C=C/c1c(C2CC2)nc2ccccc2c1-c1ccc(F)cc1.O=C([O-])C[C@H](O)C[C@H](O)/C=C/c1c(C2CC2)nc2ccccc2c1-c1ccc(F)cc1.[Ca+2] [INS103, Pitavastatin Calcium]
- cell viability of Calu3 cells with no virus, pre-treatment (pre-treated 6 or 24 hours, then DMSO containing medium 72 hours, working concentrations): No loss of cell viability
- cell viability of Calu3 cells with no virus (treated 72 hours, working concentrations (INS102 10, 1, 0.1 μM; INS103 5, 1, 0.2 μM)): No loss of cell viability
